Measurements taken from patent US9023789B2, “Amylin analogs and pharmaceutical compositions thereof” (Novo Nordisk A/S, priority 2012, dated 2015).

Experiments:
[1] = target: T1, rat amylin receptor (rat calcitonin receptor + rat RAMP 3) (Rattus norvegicus, UniProt P32214+Q9JJ73); experiment: ASSAY (VI) binding to the rat amylin receptor; conditions: for IC50: binding to rat amylin receptor, read-out: rAmylin-R bind IC50
T1 construct: expressed in transfected cells; host or cells: BHK tk'ts 13 (transient, FuGENE 6), membranes
T1 sequence (P32214 25-479 isoform P32214-2 limits assumed): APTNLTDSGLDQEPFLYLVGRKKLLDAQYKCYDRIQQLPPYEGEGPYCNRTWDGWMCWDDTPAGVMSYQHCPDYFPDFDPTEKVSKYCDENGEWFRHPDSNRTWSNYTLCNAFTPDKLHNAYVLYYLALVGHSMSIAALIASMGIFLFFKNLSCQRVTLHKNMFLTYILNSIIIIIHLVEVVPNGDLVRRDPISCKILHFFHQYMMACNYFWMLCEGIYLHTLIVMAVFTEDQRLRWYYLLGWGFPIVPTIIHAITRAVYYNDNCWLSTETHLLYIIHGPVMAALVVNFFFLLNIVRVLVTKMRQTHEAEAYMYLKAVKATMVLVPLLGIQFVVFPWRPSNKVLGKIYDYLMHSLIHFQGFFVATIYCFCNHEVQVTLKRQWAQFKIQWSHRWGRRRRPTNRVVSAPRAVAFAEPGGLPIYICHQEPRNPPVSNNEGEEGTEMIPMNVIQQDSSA
T1 sequence (Q9JJ73 23-147 partner): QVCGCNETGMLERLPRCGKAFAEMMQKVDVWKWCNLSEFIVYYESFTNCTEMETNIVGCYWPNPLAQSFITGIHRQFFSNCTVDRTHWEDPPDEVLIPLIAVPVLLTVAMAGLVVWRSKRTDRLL
Procedure: Assay (VI)—Determination of the Binding to the Rat Amylin Receptor […] The BHK tk′ts 13 cells were transiently transfected with rat calcitonin receptor using FuGENE® 6 (Roche), according to the manufacturer's recommendations. […] Approximately 48 hours after transfection, the cells were harvested and membranes were prepared.

[2] = target: T2, human amylin receptor (membranes from Amylin 3(a)/CRE-luc cells) (Homo sapiens, UniProt O60896+P30988); experiment: ASSAY (V) binding to the human amylin receptor (SPA, 125I-rat amylin); conditions: for IC50: Table 4, read-out: hAmylin-R bind IC50;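 as to all read-outs here: competition binding of cell membranes (35 ng/µL) mixed with SPA beads in 384-well plates at 40 µL total volume, read by scintillation counting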
T2 construct: expressed in transfected cells
T2 sequence (P30988 25-474): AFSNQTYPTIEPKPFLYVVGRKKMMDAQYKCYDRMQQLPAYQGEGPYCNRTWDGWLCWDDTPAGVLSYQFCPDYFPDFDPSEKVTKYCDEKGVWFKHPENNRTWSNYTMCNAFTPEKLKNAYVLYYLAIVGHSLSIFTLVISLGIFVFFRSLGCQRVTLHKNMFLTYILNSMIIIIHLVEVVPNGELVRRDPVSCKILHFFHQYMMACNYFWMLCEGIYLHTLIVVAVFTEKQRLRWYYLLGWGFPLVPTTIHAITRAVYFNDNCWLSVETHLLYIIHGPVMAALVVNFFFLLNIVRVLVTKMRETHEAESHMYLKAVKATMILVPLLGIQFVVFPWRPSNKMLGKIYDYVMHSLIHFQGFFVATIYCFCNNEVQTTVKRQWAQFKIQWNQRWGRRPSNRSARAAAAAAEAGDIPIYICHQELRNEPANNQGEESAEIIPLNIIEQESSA
T2 sequence (O60896 24-148 partner): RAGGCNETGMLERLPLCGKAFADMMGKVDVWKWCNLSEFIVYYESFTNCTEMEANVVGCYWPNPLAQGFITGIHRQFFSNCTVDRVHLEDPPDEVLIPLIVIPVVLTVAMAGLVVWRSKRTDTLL

[3] = Table 7, rat binding selectivity, rCTR IC50 / rAmylin-R IC50
[4] = Table 7a (preferred compounds), rat binding selectivity, rCTR IC50 / rAmylin-R IC50
[5] = ratio of rCTR bind IC50 to rAmylin-R bind IC50
[6] = Table 5, selectivity, hCTR bind IC50 / hAmylin-R bind IC50
[7] = Table 5a, selectivity, hCTR bind IC50 / hAmylin-R bind IC50
[8] = Table 5b, selectivity, hCTR bind IC50 / hAmylin-R bind IC50
[9] = Table 5c, selectivity, hCTR bind IC50 / hAmylin-R bind IC50
[10] = Table 7, human binding selectivity, included for comparison
[11] = Table 7a (preferred compounds), human binding selectivity, included for comparison
[12] = ratio of human calcitonin receptor binding IC50 to human amylin receptor binding IC50

IC50 ([1]; Table 7) | Ratio rCT/rAmylin binding [1, 3] | Ratio rCT/rAmylin binding [1, 4] | Ratio rCT/rAmylin binding [1, 5] | IC50 [2] | Ratio hCT/hAmylin binding [2, 6] | Ratio hCT/hAmylin binding [2, 7] | Ratio hCT/hAmylin binding [2, 8] | Ratio hCT/hAmylin binding [2, 9] | Ratio hCT/hAmylin binding [2, 10] | Ratio hCT/hAmylin binding [2, 11] | Ratio hCT/hAmylin binding [2, 12] | SMILES
0.603 nM | 25.4 | 25.4 | 25.4 | 0.264 nM | 30.7 | 30.7 | 30.7 | 30.7 | 30.7 | 30.7 | 30.7 | CC[C@H](C)[C@H](NC(=O)[C@H](C)NC(=O)CNC(=O)[C@H](Cc1ccccc1)NC(=O)[C@H](CC(N)=O)NC(=O)[C@@H]1CCCN1C(=O)[C@H](CO)NC(=O)[C@H](CO)NC(=O)[C@H](Cc1c[nH]cn1)NC(=O)[C@H](CCCNC(=N)N)NC(=O)[C@H](CC(C)C)NC(=O)[C@H](Cc1ccccc1)NC(=O)[C@H](CC(N)=O)NC(=O)[C@H](C)NC(=O)[C@H](CC(C)C)NC(=O)[C@H](CCCNC(=N)N)NC(=O)[C@H](CCC(N)=O)NC(=O)[C@@H](NC(=O)[C@H](C)NC(=O)[C@@H]1CSSC[C@H](NC(=O)[C@@H](N)CCCCNC(=O)CCCCCCCCCCCCCCCCCCC(=O)O)C(=O)N[C@@H](CC(N)=O)C(=O)N[C@@H]([C@@H](C)O)C(=O)N[C@@H](C)C(=O)N[C@@H]([C@@H](C)O)C(=O)N1)[C@@H](C)O)C(=O)N1CCC[C@H]1C(=O)N[C@@H](CO)C(=O)N[C@@H](CO)C(=O)N[C@H](C(=O)N[C@@H](CC(N)=O)C(=O)N[C@H](C(=O)NCC(=O)N[C@@H](CO)C(=O)N[C@@H](CC(N)=O)C(=O)N[C@H](C(=O)N[C@@H](Cc1ccc(O)cc1)C(N)=O)[C@@H](C)O)C(C)C)[C@@H](C)O [Example 42]
1.48 nM | 18.8 | 18.8 | 18.8 | 0.585 nM | 24.4 | 24.4 | 24.4 | 24.4 | 24.4 | 24.4 | 24.4 | CC[C@H](C)[C@H](NC(=O)[C@H](C)NC(=O)CNC(=O)[C@H](Cc1ccccc1)NC(=O)[C@H](CC(N)=O)NC(=O)[C@@H]1CCCN1C(=O)[C@H](CO)NC(=O)[C@H](CO)NC(=O)[C@H](Cc1c[nH]cn1)NC(=O)[C@H](CCCNC(=N)N)NC(=O)[C@H](CC(C)C)NC(=O)[C@H](Cc1ccccc1)NC(=O)[C@H](CC(N)=O)NC(=O)[C@H](C)NC(=O)[C@H](CC(C)C)NC(=O)[C@H](CCCNC(=N)N)NC(=O)[C@H](CCC(N)=O)NC(=O)[C@@H](NC(=O)[C@H](C)NC(=O)[C@@H]1CSSC[C@H](NC(=O)[C@H](CCCCN)NC(=O)CC[C@H](NC(=O)CCCCCCCCCCCCCCCCCCC(=O)O)C(=O)O)C(=O)N[C@@H](CC(N)=O)C(=O)N[C@@H]([C@@H](C)O)C(=O)N[C@@H](C)C(=O)N[C@@H]([C@@H](C)O)C(=O)N1)[C@@H](C)O)C(=O)N1CCC[C@H]1C(=O)N[C@@H](CO)C(=O)N[C@@H](CO)C(=O)N[C@H](C(=O)N[C@@H](CC(N)=O)C(=O)N[C@H](C(=O)NCC(=O)N[C@@H](CO)C(=O)N[C@@H](CC(N)=O)C(=O)N[C@H](C(=O)N[C@@H](Cc1ccc(O)cc1)C(N)=O)[C@@H](C)O)C(C)C)[C@@H](C)O [Example 21]
